How the values were obtained:
[1] = Pharmacokinetics (blood circulation) of Cy5.5 labelled materials in mice; type: in vivo
Procedure: The pharmacokinetics of the ABCs, BPD and control ABCs were measured to access the circulation half-life of these materials. In order to monitor these materials in vivo, the brush polymer was labeled by a higher amount of Cy5.5 fluorescent dye. The ABC, BPD and control ABC treatment groups contained the same amount of dye according to the same amount of polymer was injected into mice. The time dependent blood samples were collected and analyzed.
More than 40% of polymers for ABC, BPD and Ctrl ABC was left inside the blood after 72 h. The dye labelled trastuzumab was also studied for the comparison of the PK.

SKBR-3 cell line = assay: Cell toxicity (MTT assay), SKBR-3; type: cell-based; conditions: SKBR-3, high HER2 expression; drug conjugated materials
Procedure: (§1) Different cell lines (including SKBR-3, SKOV-3, MCF-10A, HCC-1954, BT-474) were cultured in T75 cell culture flask containing RMPI or Dulbecco's Modified Eagle Medium/Nutrient Mixture F-12 (DMEM/F12) in a humidified S26 incubator with 5% CO2 at 37° C. Culture media was supplemented with 10% fetal bovine serum (FBS), 1% 1-glutamine, and 1% antibiotic-antimycotic (100 units/mL of penicillin, 100 μg/mL of streptomycin, and 0.25 μg/mL of amphotericin B).
(§2) Different cells (including SKBR-3, SKOV-3, MCF-10A, HCC-1954, BT-474) were seeded into 96-well tissue culture plates at a density of 10 000 cells/well/100 μL sample and incubated at 37° C. After 24 h, culture media was replaced and cells were treated with different concentrations of brush polymers in 100 μL media (10 μL protein containing solution with different concentrations+90 μL medium). At the desired time interval, the medium was removed and the cells were cultured by 100 μL 10% MTT (5 mg/mL) in medium solution for another 4 h. Then, the solution was discarded and the remaining crystal was dissolved by 100 μL DMSO. The solution was subjected to absorbance measurement with SpectraMax M5 at 590 nm. Cell death was measured by the MTT assay in triplicate.

BT-474 cell line = assay: Cell toxicity (MTT assay), BT-474; type: cell-based; conditions: free antibody as a control
Procedure: as §1, §2

HCC-1954 cell line = assay: Cell toxicity (MTT assay), HCC-1954; type: cell-based; conditions: HCC-1954, low HER2 expression; drug conjugated materials
Procedure: as §1, §2

Substance | fluorescence of the Ab in blood after 72 h injection [1] | cell toxicity (SKBR-3 cell line) | cell toxicity (BT-474 cell line) | cell toxicity (HCC-1954 cell line)
dye labelled trastuzumab | almost no signal | – | – | –
trastuzumab | – | no toxicity | no toxicity | no toxicity

Source: US12084415B2, “Biomolecule-polymer-pharmaceutical agent conjugates for delivering the pharmaceutical agent” (Massachusetts Institute of Technology, priority 2021, dated 2024)
